PubChem BioAssay AID488862 (Broad Institute, 2010)
The entries are a selection whose mix differs from that of the whole data set. Some results for these compounds are left out of this collection, so the calls shown say nothing about other tests. Calls of active or inactive are those of the source. Cut-off read from the data, not from the text of the source: active = inhibition above about 52%; inactive = the rest.

Assay: suppresses PrP 5' UTR mRNA reporter expression (AID 488862); note: 0 = median of the neutral control wells
Conditions: cell-based PrP 5' UTR mRNA reporter, plate reader; stronger effect = higher value; concentration not given here

| SMILES | inhibition |
| --- | --- |
| CC(C)N1C(=O)CC2(CCN(CCOC(=O)C(O)(c3ccccc3)c3ccccc3)CC2)C1=O | inactive: -17.3% |
| CCN(CC)CC(C)C(C)OC(=O)C(O)(c1ccccc1)c1ccccc1 (stereo not given) | inactive: -0.48% |
| COc1cc(SC)ccc1C(=O)NCC1(N(C)C)CCCCC1 | inactive: -23.9% |
| Cc1ccc(C(=O)NCC2(N3CCCCC3)CCCCC2)cc1 | inactive: -9.65% |
| O=C(NCC1(N2CCCCC2)CCCCC1)c1cc([N+](=O)[O-])ccc1Cl | inactive: 15.2% |
| CN1[C@@H]2CC[C@H]1CC(OC(=O)C(O)(c1ccccc1)c1ccccc1)C2 (stereo not given in full) | inactive: -17% |
| C=CCN1CCN(CCOC(=O)C(O)(c2ccccc2)c2ccccc2)CC1 | inactive: -9.51% |
| O=C(NCC1(N2CCCCC2)CCCCC1)c1cc(F)c(F)cc1Cl | inactive: -18.5% |
| CCN1CCCC(OC(=O)C2(O)c3ccccc3C=Cc3ccccc32)C1 (stereo not given) | inactive: -9.34% |
| Cc1cc(C(=O)NCC2(N3CCCCC3)CCCCC2)ccc1[N+](=O)[O-] | inactive: -10% |
| O=C(NCC1(N2CCCCC2)CCCCC1)c1cccc(Br)c1 | inactive: -14.4% |
| COc1ccc(C(=O)NCC2(N(C)C)CCCCC2)cc1 | inactive: -17.9% |
| Cc1ccccc1C(=O)NCC1(N2CCCCC2)CCCCC1 | inactive: -23.7% |
| CN(C)c1ccc(C(=O)NCC2(N(C)C)CCCCC2)cc1 | inactive: -18.4% |
| CN(C)C1CCCC1OC(=O)C(O)(c1ccccc1)c1ccccc1 (stereo not given) | inactive: -10.6% |
| COc1cccc(C(=O)NCC2(N3CCCCC3)CCCCC2)c1 | inactive: -19.5% |
| COc1ccc(Cl)cc1C(=O)NCC1(N(C)C)CCCCC1 | inactive: -11.3% |
| O=C(NCC1(N2CCCCC2)CCCCC1)c1cccc(Cl)c1 | inactive: 6.84% |
| CN(C)C1(CNC(=O)c2ccc(Br)cc2)CCCCC1 | inactive: -20.8% |
| COc1cc(C(=O)NCC2(N(C)C)CCCCC2)c([N+](=O)[O-])cc1OC | inactive: -9.39% |
| COc1ccc(Br)c(C(=O)NCC2(N3CCCCC3)CCCCC2)c1 | inactive: -12.2% |
| CN(C)c1cccc(C(=O)NCC2(N(C)C)CCCCC2)c1 | inactive: -42.8% |
| CC(C)Oc1ccc(C(=O)NCC2(N(C)C)CCCCC2)cc1 | inactive: 2.77% |
| O=C(OCCN1CCCC1)C(O)(c1ccccc1)c1ccccc1 | inactive: -20.2% |
| O=C(OC1CN2CCC1CC2)C(CO)(c1ccccc1)c1ccccc1 (stereo not given) | inactive: -2.67% |
